# Screening data (PubChem BioAssay)
# Only some compounds are listed: those with a hit (about 2.5% of all), similar ones and a draw of the others.
# TrxR1 substrate = substrates of rat thioredoxin reductase 1; O89049; purified TrxR1 substrate turnover, NADPH consumption readout; Potency, µM (titrated, usually from 114 µM), for the others: at the top dose activity change, negative = substrate turnover; hit rate 0.01% among 390,000; also: potency is read from the fitted curve at half-maximal effect; % is scaled to controls: 0 for no effect and ±100 for the full control effect; nearly all actives have a fitted effect of over 50% in size
#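 Rat TrxR1, dispensed at 90 nM, was prereduced with 400 uM NADPH (final) for 5 min at ~22 deg C, then incubated with compound 15 min before 400 uM selenite. A first-read NADPH fluorescence drop versus no-compound background flagged substrates.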
# TrxR1 inh = inhibitors of rat thioredoxin reductase 1. hit rate 1% among 390,000. recombinant rTrxR1, NADPH fluorescence consumption, selenite substrate. Potency, µM (series often up to 114 µM), without a hit: at the highest dose activity change, negative = inhibition, most hits filed as inhibitors. O89049; also: potency is read from the fitted curve at half-maximal effect; % is scaled to controls: 0 for no effect and ±100 for the full control effect; nearly all actives have a fitted effect of over 65% in size
#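 Rat TrxR1 (90 nM in the dispensed reagent) was pre-reduced with 400 uM NADPH for 5 min at room temperature, then incubated with compound for 15 min. After 400 uM selenite was added, NADPH fluorescence (Ex 340/Em 450 nm) was followed for 8 min.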
# Anesthetic bind = candidate novel general anesthetic via apoferritin binding | P02791 | apoferritin/1-aminoanthracene competitive binding, fluorescence | Potency, µM (highest dose often 77.5 µM), inactives show top-dose activity change, negative = displacement, most hits filed as inhibitors | hit rate 0.074% among 350,000 | AID 485281; also: potency is read from the fitted curve at half-maximal effect; % is scaled to controls: 0 for no effect and ±100 for the full control effect; nearly all actives have a fitted effect of over 20% in size
#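 Concentration-response curves derived by four-parameter Hill fitting of normalized fluorescence, where compounds displaced 1-AMA from 10 uM horse apoferritin following a brief 10 min room-temperature incubation; propofol titration acted as positive control.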
# miR-21 reporter = raises the signal of a miR-21 reporter; 340,000 tested, under 10 active; HeLa miR-21 FLuc reporter, luciferase, 48 h; Potency, µM (highest dose often 38.3 µM), without a hit: top-dose reporter change, positive = more light; active = well fitted rising curve with a large enough effect; inconclusive = small, poorly fitted or top-dose-only effect; inactive = no such curve, though single readings can be large or run the other way;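 also: % of control where 0% means no effect; miR-21 action dims this reporter so a rising signal means less miR-21 action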
#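 Compounds were titrated across several concentrations (up to approximately 40 uM) and incubated 48 hours with HeLa miR-21-FLuc reporter cells (miR-21 target sequence downstream of FLuc, endogenous miR-21). Readout was firefly luciferase luminescence after lytic detection reagent.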
# ClpP mod = qHTS Assay for Activators of ClpP. Potency, µM (top dose mostly 57.5 µM), for inactives: top-dose activity change, negative = active. hit rate 1.9% among 340,000. purified B. subtilis ClpP, FRET peptide cleavage, 20 min. AID 651965, 2013; active = well fitted falling curve with a large enough effect; inconclusive = small, poorly fitted or top-dose-only effect; inactive = no such curve, though single readings can be large or run the other way; also: potency is read from the fitted curve at half-maximal effect; the source files actives as falling curves though it sought activators and does not explain the sign; nearly all actives have a fitted effect of over 65% in size
#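 Buffer: 100 mM Tris/HCl pH8, 100 mM KCl, 0.05% low protease BSA, 2.5% glycerol, 0.01% Tween-20. ClpP 10 microg/mL final; 20 min RT; delta FRET normalized to ADEP and DMSO controls.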
# * hit, by the source's call; ? = inconclusive; nt = not tested or not shown; [ ] = dose if it differs, or a comment. Unless noted, calls follow the shape of the dose curve; as a rule, active = well fitted curve in the direction sought with a large enough effect; inconclusive = small, poorly fitted or top-dose-only effect, or another doubt; inactive = no such curve, though single readings can be large; an effect the other way counts as inactive or inconclusive.
# The opening three records as a preview:
# Values run as follows: TrxR1 substrate, TrxR1 inh, Anesthetic bind, miR-21 reporter, ClpP mod
- N#Cc1c(N2CCN(C(=O)c3ccco3)CC2)nc(-c2ccccc2)c2c1CCCC2
  59%, ?, 328%, 18%, 14µM*
- N#Cc1c(N2CCN(C(=O)c3ccccc3)CC2)nc(-c2ccccc2)c2c1CCCC2
  50%[57.1 µM], 96%[57.1 µM], 150%, -1%, 28µM*
- Cc1oc2c(c(C)cc3oc(=O)c(CC(=O)NCCc4ccccc4)c(C)c32)c1C
  24%, 37%, -7%, 4%, -26%

# The listing, repeating the preview:
# Values run as follows: TrxR1 substrate, TrxR1 inh, Anesthetic bind, miR-21 reporter, ClpP mod
- N#Cc1c(N2CCN(C(=O)c3ccco3)CC2)nc(-c2ccccc2)c2c1CCCC2
  59%, ?, 328%, 18%, 14µM*
- N#Cc1c(N2CCN(C(=O)c3ccccc3)CC2)nc(-c2ccccc2)c2c1CCCC2
  50%[57.1 µM], 96%[57.1 µM], 150%, -1%, 28µM*
- Cc1oc2c(c(C)cc3oc(=O)c(CC(=O)NCCc4ccccc4)c(C)c32)c1C
  24%, 37%, -7%, 4%, -26%
- Cc1ccsc1CCN1C(=O)N(c2ccc(F)cc2)C(=O)C1CC(=O)Nc1ccccc1 (configuration not stated)
  1%, 15%, -1%, 10%, 0%
- COc1ccc(-c2onc(C)c2C)cc1S(=O)(=O)Nc1cc(Cl)ccc1C
  -1%[57.1 µM], 2%[57.1 µM], 6%, 27%, -2%
- CNc1nc2c(C)cccn2c(=O)c1C=NCc1ccccc1
  13%[57.1 µM], 10%[57.1 µM], -3%, -4%, 28%
- Cc1cccn2c(=O)c(C=Nc3ccc(Cl)cc3)c(NCCO)nc12
  69%, 5%, 4%, -5%, 28µM*
- CN=Cc1c(NC)nc2c(C)cccn2c1=O
  59%, 18%[57.1 µM], -7%, 0%, 40µM*
- Cc1cccn2c(=O)c(C=Nc3ccccc3)c(NCCO)nc12
  89%, 8%, 4%, -1%, 4%
- Cc1ccc(C2=NN(CC(=O)NCCc3ccccc3)C(=O)CC2)cc1
  3%[57.1 µM], 22%[57.1 µM], 2.5µM*, -6%, 0%
- Cc1ccc(C2=NN(CCC(=O)NCc3ccc4c(c3)OCO4)C(=O)CC2)cc1
  2%, 3%, ?, -5%, 7.9µM*
- N#CC(C#N)=NNc1ccc(S(=O)(=O)N2CCCCC2)cc1
  -12%, 32µM*, -25%, 1%, -2%
- COc1ccc2oc(=O)c(C(=O)NCc3cccnc3)cc2c1
  168%, -25%, 240%, -4%, 28µM*
- CNC(=O)c1cc2cc(OC)ccc2oc1=O
  124%, -8%, 745%, -3%, 28µM*
- COc1ccc2oc(=O)c(C(=O)NCc3ccc(F)cc3)cc2c1
  18%[57.1 µM], 6%[57.1 µM], 45%, 0%, 1%
- COc1ccc(-c2cc(C(F)F)n3ncc(C(=O)NCC4CCCO4)c3n2)cc1 (configuration not stated)
  120%, -5%, 6%, 0%, 22µM*
- COc1cccc2cc(C(=O)NCC3CCCO3)c(=O)oc12 (configuration not stated)
  4%[11.4 µM], -31%[11.4 µM], -2%, -10%, -1%
- COc1ccc2oc(=O)c(C(=O)NCC3CCCO3)cc2c1 (configuration not stated)
  190%, 0%[57.1 µM], 582%, -31%, 28µM*
- CNC(=O)c1cc2ccc(OC)cc2oc1=O
  420%[57.1 µM], 9%[57.1 µM], 6%, -26%, 84%
- CCN(CC)c1ccc(/C=C/c2ccncc2)cc1
  -27%, ?, nt, nt, -1%
- CCN(CCCNC(=O)CN1N=C(c2ccc(OC)cc2)CCC1=O)c1cccc(C)c1
  -6%[57.1 µM], 0%[57.1 µM], ?, 5%, -6%
- COc1ccc(Br)cc1C1NC(c2ccc3c(c2)OCO3)=CC(c2cc(Cl)ccc2O)N1 (configuration not stated)
  -5%, ?, nt, nt, nt
- Cc1ccc(C(=O)NC(NCc2ccccc2)C(Cl)(Cl)Cl)cc1 (configuration not stated)
  -14%, -16%, 3%, -3%, 14µM*
- O=C1CSC(c2nn(-c3ccccc3)cc2-c2cc3ccccc3oc2=O)N1Cc1ccco1 (configuration not stated)
  268%, 384%, 43%, -3%, 35µM*
- CN(C)C(=O)c1cn(-c2ccccc2)nc1-c1cc2ccccc2oc1=O
  9%[57.1 µM], 6%[57.1 µM], 2%, 0%, nt
- O=C1CSC(c2cn(-c3ccccc3)nc2-c2cc3ccccc3oc2=O)N1Cc1ccccc1 (configuration not stated)
  309%, 280%, 3%, 1%, 28µM*
- CCN(CC)c1ccc(/C=N/NC(=O)c2ccc(O)cc2)cc1
  nt, nt, 16%, nt, nt
- CCN(CC)c1ccc(/C=N\NC(N)=O)cc1
  39%, -15%, -3%, -41%, 25µM*
- CCN(CC)c1ccc(/C=N/NC(=O)CC(C)C)cc1
  25%[57.1 µM], -7%[57.1 µM], -18%, -25%, 18µM*
- Cn1c(SCC(=O)N2CCN(c3ccccc3)CC2)nnc1-c1cc2ccccc2o1
  -5%, -1%, 6%, -1%, -8%

# Entries of single compounds, quoted from the list.
# `COc1ccc2oc(=O)c(C(=O)NCC3CCCO3)cc2c1` (configuration not stated) is listed with TrxR1 substrate: 190%; TrxR1 inh: 0%[57.1 µM]; Anesthetic bind: 582%; miR-21 reporter: -31%; ClpP mod: 28µM*
# `CNC(=O)c1cc2ccc(OC)cc2oc1=O` is listed with TrxR1 substrate: 420%[57.1 µM]; TrxR1 inh: 9%[57.1 µM]; Anesthetic bind: 6%; miR-21 reporter: -26%; ClpP mod: 84%

# (more compounds)
# Values run as follows: TrxR1 substrate, TrxR1 inh, Anesthetic bind, miR-21 reporter, ClpP mod
- O=C(O)CSc1nnc(-c2cc3ccccc3o2)n1-c1ccccc1
  8%[57.1 µM], 3%[57.1 µM], 11%, -7%, 22µM*
- COc1ccc(C(C)=O)cc1CN(C)C
  3%, 8.9µM*, -6%, -4%, -4%
- COc1ccc(C(C)=O)cc1COC(=O)c1c(C)noc1C
  -5%, 35µM*, -13%, 13%, 0%
- O[N+]1=CC=CCC1=S.On1ccccc1=S.[Zn]
  nt, nt, 3%, nt, nt
- COC(=O)c1ccc(NC(=O)CC2C(=O)N(c3ccc(Cl)cc3)C(=O)N2Cc2ccco2)cc1 (configuration not stated)
  -7%, 0%, -14%, 2%, -4%
- CCCCn1c(=O)nc2n(-c3ccccc3)c3ccccc3cc-2c1=O
  268%, 46%, 40%, 3%, 25µM*
- CCCNC(=O)C/C(C)=N/NC(=O)C(=O)Nc1ccccn1
  2%, 63µM*, -11%, -11%, 0%
- C/C(CC(=O)Nc1ccccn1)=N\NC(=O)c1ccccc1
  nt, nt, -6%, -47%, nt
- COc1ccc(-c2noc(N3CCC(C(=O)N(C)c4cc(Cl)ccc4OC)CC3)n2)cc1
  -9%, -9%, -9%, 0%, 2%
- C/C(CCc1oc2ccc(Cl)cc2c1-c1ccc(C)o1)=N\O
  -5%, 10µM*, -10%, -6%, -17%
- C/C(CCc1oc2ccc(Br)cc2c1-c1ccc(C)o1)=N/O
  5%, 18µM*, 1%, -14%, 1%
- CC(=O)CCc1oc2ccc(C)cc2c1-c1ccccc1
  8%[57.1 µM], 7%[57.1 µM], -4%, -1%, -1%
- COc1ccc(/C=C/C(=O)c2c(O)c(OC)c3occc3c2OC)cc1OC
  -2%, -34%, nt, nt, -1%
- O=S(=O)(Nc1cccc2ccccc12)c1ccc2ccccc2c1
  5%[0.457 µM], 6%, nt, nt, nt
- CC(C)C(NC(=O)c1ccc(C(C)(C)C)cc1)C(=O)N1CCCC1 (configuration not stated)
  -5%, 4%, 7%, -11%, nt
- CCOc1ccc(C(=O)NC(C(=O)N2CCC2)C(C)C)cc1 (configuration not stated)
  -1%, 6%, nt, nt, 28µM*
- Cc1ccc(C)c(S(=O)(=O)ON2C(=O)c3ccccc3C2=O)c1
  24%, 3.2µM*, -4%, -2%, nt
- CCCSc1nc(NCc2ccco2)c2c3c(sc2n1)COC(C)(C)C3
  -10%, 45µM*, ?, -24%, -21%
- Cc1ccccc1-c1nc(CN2CCN(C(=O)c3ccco3)CC2)c(C)o1
  -6%, 56µM*, -7%, -7%, 0%
